# Assay results: patent US9394297B2, “Amides as pim inhibitors” (AMGEN INC., priority 2012, dated 2016)
# Sequences of proteins named here, by UniProt entry; tags and fusion partners are left off. A change or cut given only in a name is not applied to a line headed by its entry.
# UniProt P11309, whole entry: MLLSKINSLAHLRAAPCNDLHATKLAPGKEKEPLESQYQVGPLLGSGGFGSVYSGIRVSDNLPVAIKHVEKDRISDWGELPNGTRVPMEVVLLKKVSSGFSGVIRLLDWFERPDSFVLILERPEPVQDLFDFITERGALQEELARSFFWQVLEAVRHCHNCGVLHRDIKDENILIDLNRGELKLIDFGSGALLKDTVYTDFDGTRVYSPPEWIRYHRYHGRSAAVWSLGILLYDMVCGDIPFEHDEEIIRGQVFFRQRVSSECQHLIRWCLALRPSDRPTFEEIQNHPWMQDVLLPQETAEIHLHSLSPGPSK
# UniProt Q9P1W9: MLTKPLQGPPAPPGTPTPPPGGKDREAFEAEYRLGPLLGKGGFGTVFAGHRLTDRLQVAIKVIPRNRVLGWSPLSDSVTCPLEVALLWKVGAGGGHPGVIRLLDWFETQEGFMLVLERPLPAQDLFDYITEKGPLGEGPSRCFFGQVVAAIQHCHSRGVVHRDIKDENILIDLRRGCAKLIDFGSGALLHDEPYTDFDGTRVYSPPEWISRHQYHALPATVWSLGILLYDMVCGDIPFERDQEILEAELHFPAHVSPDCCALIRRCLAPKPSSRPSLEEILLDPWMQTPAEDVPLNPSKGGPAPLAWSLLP
# Target: T1, Pim-1 (Homo sapiens (Human), UniProt P11309)
# Assay: Pim enzyme assay (HTRF, 96-well), Pim-1
# Assay type: biochemical
# Settings: full length recombinant Pim-1, biotinylated-BAD (S112) peptide, 10-point curve, 2 h RT, read-out: Pim-1 IC50 IP
row,SMILES,IC50 [nM]
1,"CC1CNC(=O)c2cc(-c3cccc4ccc(Cl)nc34)[nH]c21 (racemic) [Example 27, rac-2-(2-chloroquinolin-8-yl)-7-methyl-6,7-dihydro-1H-pyrrolo[3,2-c]pyridin-4(5H)-one]",153
2,"CC[C@@H]1CNC(=O)c2cc(-c3cccc4ccc(Nc5ccccc5)nc34)[nH]c21 [Example 25, (R)-7-ethyl-2-(2-(phenylamino)quinolin-8-yl)-6,7-dihydro-1H-pyrrolo[3,2-c]pyridin-4(5H)-one]",2.4
3,"O=C1NCCc2[nH]c(-c3cccc4ccc(C5(c6ccccc6)CC5)nc34)cc21 [Example 114, 2-(2-(1-phenylcyclopropyl)quinolin-8-yl)-6,7-dihydro-1H-pyrrolo[3,2-c]pyridin-4(5H)-one]",4.1
4,"CCCNc1nc2c(-c3cc4c([nH]3)CCNC4=O)cccc2nc1C [Example 191, 2-(2-methyl-3-(propylamino)-5-quinoxalinyl)-1,5,6,7-tetrahydro-4H-pyrrolo[3,2-c]pyridin-4-one]",9.3

# More lines, now with the values ahead:
row,IC50 [nM],SMILES
1,0.7,"CCC1CNC(=O)c2cc(-c3cccc4ccc(Nc5ccccc5)nc34)[nH]c21 (racemic) [Example 24, rac-7-ethyl-2-(2-(phenylamino)quinolin-8-yl)-6,7-dihydro-1H-pyrrolo[3,2-c]pyridin-4(5H)-one]"
2,14.9,"CC1CNC(=O)c2cc(-c3cccc4ccc(Oc5ccccc5)nc34)[nH]c21 (racemic) [Example 28, rac-7-methyl-2-(2-phenoxyquinolin-8-yl)-6,7-dihydro-1H-pyrrolo[3,2-c]pyridin-4(5H)-one]"
3,370,"CC1Cc2[nH]c(-c3cccc4ccc(Cl)nc34)cc2C(=O)N1 (racemic) [Example 31, rac-2-(2-chloroquinolin-8-yl)-6-methyl-6,7-dihydro-1H-pyrrolo[3,2-c]pyridin-4(5H)-one]"
4,54.8,"CC(Oc1ccc2cccc(-c3cc4c([nH]3)CCNC4=O)c2n1)C(F)(F)F (racemic) [Example 79, rac-2-(2-((1,1,1-trifluoropropan-2-yl)oxy)quinolin-8-yl)-6,7-dihydro-1H-pyrrolo[3,2-c]pyridin-4(5H)-one]"
5,50.9,"Cc1nc2cccc(-c3cc4c([nH]3)CCNC4=O)c2nc1NC1CCC(=O)N(C)C1 (racemic) [Example 195, rac-2-(2-methyl-3-((1-methyl-6-oxopiperidin-3-yl)amino)quinoxalin-5-yl)-6,7-dihydro-1H-pyrrolo[3,2-c]pyridin-4(5H)-one 2,2,2-trifluoroacetate]"
6,4.9,"O=C1NCCc2[nH]c(-c3cccc4ccc(Sc5ccccc5)nc34)cc21 [Example 5, 2-(2-(phenylthio)quinolin-8-yl)-6,7-dihydro-1H-pyrrolo[3,2-c]pyridin-4(5H)-one]"
7,9.3,"Cc1cc2cccc(-c3cc4c([nH]3)CCNC4=O)c2nc1Oc1ccccc1 [Example 104, 2-(3-methyl-2-phenoxyquinolin-8-yl)-6,7-dihydro-1H-pyrrolo[3,2-c]pyridin-4(5H)-one]"
8,4.1,"O=C1NCCc2[nH]c(-c3cccc4ccc(Oc5cccc(O)c5)nc34)cc21 [Example 109, 2-(2-(3-hydroxyphenoxy)quinolin-8-yl)-6,7-dihydro-1H-pyrrolo[3,2-c]pyridin-4(5H)-one]"
9,0.7,"CC[C@H]1CNC(=O)c2cc(-c3cccc4ccc(Nc5ccccc5)nc34)[nH]c21 [Example 239, (S)-7-ethyl-2-(2-(phenylamino)quinolin-8-yl)-6,7-dihydro-1H-pyrrolo[3,2-c]pyridin-4(5H)-one]"

# Target: T2, Pim-2 (Homo sapiens (Human), UniProt Q9P1W9)
# Assay: Pim-Mn enzyme assay (HTRF, 384-well), Pim-2
# Assay type: biochemical
# Settings: Pim-2 enzyme 0.5 pM, ATP 1.5 μM, BAD (S112) 0.5 μM, 22-point curve, read-out: Pim-2-Mn IC50 IP
row,SMILES,IC50 [nM]
1,"Cc1nc2cccc(-c3cc4c([nH]3)CCNC4=O)c2nc1NC1CCS(=O)(=O)C1 (racemic) [Example 74, 2-(3-(((±)-1,1-dioxidotetrahydro-3-thiophenyl)amino)-2-methyl-5-quinoxalinyl)-1,5,6,7-tetrahydro-4H-pyrrolo[3,2-c]pyridin-4-one]",20.5
2,"CC(=O)N[C@@H]1CC[C@@H]1Nc1nc2c(-c3cc4c([nH]3)CCNC4=O)cccc2nc1C (single isomer, unassigned) [Example 58, N-(cis-2-((3-methyl-8-(4-oxo-4,5,6,7-tetrahydro-1H-pyrrolo[3,2-c]pyridin-2-yl)-2-quinoxalinyl)amino)cyclobutyl)acetamide]",180
3,"CC(=O)N[C@@H]1CC[C@@H]1Nc1nc2c(-c3cc4c([nH]3)CCNC4=O)cccc2nc1C (single isomer, unassigned) [Example 59, N-(cis-2-((3-methyl-8-(4-oxo-4,5,6,7-tetrahydro-1H-pyrrolo[3,2-c]pyridin-2-yl)-2-quinoxalinyl)amino)cyclobutyl)acetamide]",25.7
4,"CC(C)(C)Nc1nc2c(-c3cc4c([nH]3)CCNC4=O)cccc2nc1C=O [Example 282, 3-(tert-butylamino)-5-(4-oxo-4,5,6,7-tetrahydro-1H-pyrrolo[3,2-c]pyridin-2-yl)-2-quinoxalinecarbaldehyde]",11.8
5,"Cc1nc2ccc(F)c(-c3cc4c([nH]3)[C@@H](C)NC4=O)c2nc1NC(C)(C)C [Example 297, (6R)-2-(3-(tert-butylamino)-6-fluoro-2-methyl-5-quinoxalinyl)-6-methyl-5,6-dihydropyrrolo[3,4-b]pyrrol-4(1H)-one]",0.109
6,"Cc1nc2cccc(-c3cc4c([nH]3)[C@@H](C)NC4=O)c2nc1N[C@H]1CCC[C@@H](NCC(F)(F)F)C1 [Example 487, (6R)-6-methyl-2-(2-methyl-3-(((1S,3R)-3-((2,2,2-trifluoroethyl)amino)cyclohexyl)amino)-5-quinoxalinyl)-5,6-dihydropyrrolo[3,4-b]pyrrol-4(1H)-one]",0.267

# More lines, now with the values ahead:
row,IC50 [nM],SMILES
1,38.3,"CC(=O)N[C@@H]1CC[C@@H]1Nc1nc2c(-c3cc4c([nH]3)CCNC4=O)cccc2nc1C (racemic) [Example 56, rac-N-(cis-2-((3-methyl-8-(4-oxo-4,5,6,7-tetrahydro-1H-pyrrolo[3,2-c]pyridin-2-yl)-2-quinoxalinyl)amino)cyclobutyl)acetamide]"
2,0.201,"Cc1nc2ccc(F)c(-c3cc4c([nH]3)[C@H](C)NC4=O)c2nc1NC(C)(C)C [Example 298, (6S)-2-(3-(tert-butylamino)-6-fluoro-2-methyl-5-quinoxalinyl)-6-methyl-5,6-dihydropyrrolo[3,4-b]pyrrol-4(1H)-one]"
3,8.14,"Cc1nc2cccc(-c3cc4c([nH]3)CCCNC4=O)c2nc1NC(C)(C)C [Example 305, 2-(3-(tert-butylamino)-2-methylquinoxalin-5-yl)-5,6,7,8-tetrahydropyrrolo[3,2-c]azepin-4(1H)-one]"
4,45.4,"CC(=O)N1CCc2[nH]c(-c3cccc4nc(C)c(NC(C)(C)C)nc34)cc2C1=O [Example 315, 5-acetyl-2-(3-(tert-butylamino)-2-methylquinoxalin-5-yl)-6,7-dihydro-1H-pyrrolo[3,2-c]pyridin-4(5H)-one]"
5,61.8,"Cc1nc2cccc(-c3cc4c([nH]3)CCNC4=O)c2nc1NC(C)(C)CNC(=O)OC(C)(C)C [Example 339, tert-butyl (2-methyl-2-((3-methyl-8-(4-oxo-4,5,6,7-tetrahydro-1H-pyrrolo[3,2-c]pyridin-2-yl)-2-quinoxalinyl)amino)propyl)carbamate]"
6,0.454,"Cc1nc2cccc(-c3[nH]c4c(c3Cl)C(=O)NCC4)c2nc1NC(C)(C)C [Example 348, 2-(3-(tert-butylamino)-2-methyl-5-quinoxalinyl)-3-chloro-1,5,6,7-tetrahydro-4H-pyrrolo[3,2-c]pyridin-4-one]"

# Target: T2, Pim-2
# Assay: Pim enzyme assay (HTRF, 96-well), Pim-2
# Assay type: biochemical
# Settings: full length recombinant Pim-2, biotinylated-BAD (S112) peptide, 10-point curve, 45 min RT, read-out: Pim-2 IC50 IP
row,SMILES,IC50 [nM]
1,"CCC1CNC(=O)c2cc(-c3cccc4ccc(Oc5ccccc5)nc34)[nH]c21 (racemic) [Example 23, rac-7-ethyl-2-(2-phenoxyquinolin-8-yl)-6,7-dihydro-1H-pyrrolo[3,2-c]pyridin-4(5H)-one]",53.6
2,"Cc1nc2cccc(-c3cc4c([nH]3)CCNC4=O)c2nc1NC1CCCCCC1 [Example 134, 2-(3-(cycloheptylamino)-2-methylquinoxalin-5-yl)-6,7-dihydro-1H-pyrrolo[3,2-c]pyridin-4(5H)-one]",13.9

# Other lines, results leading:
row,IC50 [nM],SMILES
1,248,"CCC1CNC(=O)c2cc(-c3cccc4ccc(Cl)nc34)[nH]c21 (racemic) [Example 22, rac-2-(2-chloroquinolin-8-yl)-7-ethyl-6,7-dihydro-1H-pyrrolo[3,2-c]pyridin-4(5H)-one]"
2,9,"Cc1cc2cccc(-c3cc4c([nH]3)CCNC4=O)c2nc1Oc1ccccc1 [Example 104, 2-(3-methyl-2-phenoxyquinolin-8-yl)-6,7-dihydro-1H-pyrrolo[3,2-c]pyridin-4(5H)-one]"

# Target: T1, Pim-1
# Assay: Pim-Mn enzyme assay (HTRF, 384-well), Pim-1
# Assay type: biochemical
# Settings: Pim-1 enzyme 5 pM, ATP 1.5 μM, BAD (S112) 0.5 μM, 22-point curve, read-out: Pim-1-Mn IC50 IP
row,SMILES,IC50 [nM]
1,"Cc1nc2cccc(-c3cc4c([nH]3)CCNC4=O)c2nc1NC1CCS(=O)(=O)C1 (racemic) [Example 74, 2-(3-(((±)-1,1-dioxidotetrahydro-3-thiophenyl)amino)-2-methyl-5-quinoxalinyl)-1,5,6,7-tetrahydro-4H-pyrrolo[3,2-c]pyridin-4-one]",22.1
2,"C[C@H]1NC(=O)c2cc(-c3cccc4c(=O)n(C)c(N[C@H]5CCC[C@@H](N)C5)nc34)[nH]c21 (racemic) [Example 506, (rac)-2-(((cis)-3-aminocyclohexyl)amino)-3-methyl-8-((6R)-6-methyl-4-oxo-1,4,5,6-tetrahydropyrrolo[3,4-b]pyrrol-2-yl)-4(3H)-quinazolinone]",0.2
3,"CC(=O)N[C@@H]1CC[C@@H]1Nc1nc2c(-c3cc4c([nH]3)CCNC4=O)cccc2nc1C (single isomer, unassigned) [Example 58, N-(cis-2-((3-methyl-8-(4-oxo-4,5,6,7-tetrahydro-1H-pyrrolo[3,2-c]pyridin-2-yl)-2-quinoxalinyl)amino)cyclobutyl)acetamide]",60
4,"CC(=O)N[C@@H]1CC[C@@H]1Nc1nc2c(-c3cc4c([nH]3)CCNC4=O)cccc2nc1C (single isomer, unassigned) [Example 59, N-(cis-2-((3-methyl-8-(4-oxo-4,5,6,7-tetrahydro-1H-pyrrolo[3,2-c]pyridin-2-yl)-2-quinoxalinyl)amino)cyclobutyl)acetamide]",19
5,"Cc1nc2cccc(-c3cc4c([nH]3)CCNC4=O)c2nc1NC1CCCOC1 (single isomer, unassigned) [Example 208, 2-(2-methyl-3-((tetrahydro-2H-pyran-3-yl)amino)quinoxalin-5-yl)-6,7-dihydro-1H-pyrrolo[3,2-c]pyridin-4(5H)-one]",2.7
6,"C[C@H]1NC(=O)c2cc(-c3cccc4c(=O)[nH]c(N(C)C(C)(C)C)nc34)[nH]c21 [Example 407, 2-(tert-butyl(methyl)amino)-8-((6R)-6-methyl-4-oxo-1,4,5,6-tetrahydropyrrolo[3,4-b]pyrrol-2-yl)-4(3H)-quinazolinone]",0.18

# Further lines, results first:
row,IC50 [nM],SMILES
1,22.7,"CC(=O)N[C@@H]1CC[C@@H]1Nc1nc2c(-c3cc4c([nH]3)CCNC4=O)cccc2nc1C (racemic) [Example 56, rac-N-(cis-2-((3-methyl-8-(4-oxo-4,5,6,7-tetrahydro-1H-pyrrolo[3,2-c]pyridin-2-yl)-2-quinoxalinyl)amino)cyclobutyl)acetamide]"
2,6.9,"Cc1nc2cccc(-c3cc4c([nH]3)CCNC4=O)c2nc1CC(C)(C)C [Example 272, 2-(3-(2,2-dimethylpropyl)-2-methyl-5-quinoxalinyl)-1,5,6,7-tetrahydro-4H-pyrrolo[3,2-c]pyridin-4-one]"
3,0.455,"Cc1nc2cccc(-c3[nH]c4c(c3Cl)C(=O)NCC4)c2nc1NC(C)(C)C [Example 348, 2-(3-(tert-butylamino)-2-methyl-5-quinoxalinyl)-3-chloro-1,5,6,7-tetrahydro-4H-pyrrolo[3,2-c]pyridin-4-one]"
